One assay addresses Mu-type opioid receptor (Cavia porcellus, UniProt P97266). The experiment in a line: Inhibition of opioid receptor mu by displacing 1 nM [3H]DAGO in guinea pig brain membrane.
The target of assay [1] is Kappa-type opioid receptor (Cavia porcellus, UniProt P41144). Nature of the assay: Inhibition of opioid receptor kappa by displacing 0.5 nM [3H]bremazocine in guinea pig brain membrane.
Assay [2] deals with Opioid receptors; mu/kappa/delta (Homo sapiens, UniProt P41145+P41143+P35372). The experiment in a line: Inhibition of total opioid receptor by displacing 0.5 nM [3H]bremazocine in guinea pig brain membrane.

Sequences of proteins named here, by UniProt entry; tags and fusion partners are left off. A change or cut given only in a name is not applied to a line headed by its entry.
UniProt P97266, whole entry, looked up: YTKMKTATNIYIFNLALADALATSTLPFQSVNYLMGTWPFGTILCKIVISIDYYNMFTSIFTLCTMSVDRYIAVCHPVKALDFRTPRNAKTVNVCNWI
UniProt P41144: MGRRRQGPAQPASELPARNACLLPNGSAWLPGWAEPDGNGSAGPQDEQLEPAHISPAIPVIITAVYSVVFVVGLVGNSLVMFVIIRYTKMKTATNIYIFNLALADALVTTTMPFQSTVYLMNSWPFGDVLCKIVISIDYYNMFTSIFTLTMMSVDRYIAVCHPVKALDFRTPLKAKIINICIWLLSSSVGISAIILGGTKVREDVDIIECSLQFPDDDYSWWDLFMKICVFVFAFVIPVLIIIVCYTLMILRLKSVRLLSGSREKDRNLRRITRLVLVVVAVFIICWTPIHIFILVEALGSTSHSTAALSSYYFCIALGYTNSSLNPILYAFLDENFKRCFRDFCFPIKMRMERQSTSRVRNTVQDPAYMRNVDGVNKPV
UniProt P41145: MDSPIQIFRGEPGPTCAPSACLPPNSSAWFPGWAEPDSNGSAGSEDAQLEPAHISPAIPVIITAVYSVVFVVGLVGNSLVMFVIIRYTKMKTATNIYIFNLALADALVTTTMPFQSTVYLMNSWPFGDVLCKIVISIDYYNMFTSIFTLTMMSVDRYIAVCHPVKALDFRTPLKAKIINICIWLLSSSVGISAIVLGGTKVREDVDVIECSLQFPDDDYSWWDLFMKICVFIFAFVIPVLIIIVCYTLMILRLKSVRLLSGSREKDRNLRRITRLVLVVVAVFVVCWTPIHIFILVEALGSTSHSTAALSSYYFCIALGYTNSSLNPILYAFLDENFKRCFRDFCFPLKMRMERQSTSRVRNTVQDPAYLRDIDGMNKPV
UniProt P41143, whole entry, looked up: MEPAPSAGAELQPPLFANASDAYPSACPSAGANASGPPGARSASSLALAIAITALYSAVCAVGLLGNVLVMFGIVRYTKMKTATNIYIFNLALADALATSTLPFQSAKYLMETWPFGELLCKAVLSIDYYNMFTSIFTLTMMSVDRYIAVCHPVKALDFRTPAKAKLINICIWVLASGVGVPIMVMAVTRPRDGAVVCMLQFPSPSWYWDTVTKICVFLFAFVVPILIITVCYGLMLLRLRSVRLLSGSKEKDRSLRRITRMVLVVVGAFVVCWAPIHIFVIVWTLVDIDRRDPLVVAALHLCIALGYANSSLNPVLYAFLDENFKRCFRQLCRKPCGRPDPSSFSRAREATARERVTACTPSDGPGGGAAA
UniProt P35372, whole entry, looked up: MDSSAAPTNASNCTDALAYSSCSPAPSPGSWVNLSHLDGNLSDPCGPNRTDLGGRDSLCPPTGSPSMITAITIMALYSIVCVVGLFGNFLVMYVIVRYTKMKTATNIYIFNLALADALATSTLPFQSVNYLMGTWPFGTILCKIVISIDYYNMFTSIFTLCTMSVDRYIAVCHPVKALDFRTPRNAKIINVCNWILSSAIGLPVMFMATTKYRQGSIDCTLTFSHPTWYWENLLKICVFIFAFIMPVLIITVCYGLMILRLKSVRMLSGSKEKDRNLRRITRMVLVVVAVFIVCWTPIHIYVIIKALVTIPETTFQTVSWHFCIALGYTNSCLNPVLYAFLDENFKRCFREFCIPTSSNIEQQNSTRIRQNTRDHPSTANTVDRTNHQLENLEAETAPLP

The IC50 is the concentration that inhibits the measured activity by half. Regarding `C=C(COc1ccc2c3c1O[C@H]1C(=O)CC[C@@]4(O)[C@@H](C2)N(C)CC[C@]314)C(=O)OC`, the 50% inhibitory concentration (IC50) on Mu-type opioid receptor is 2.4 nM; in assay [1], 880 nM; in assay [2] it was 110 nM.
With `C=C(COc1ccc2c3c1O[C@H]1c4[nH]c5c(c4C[C@@]4(O)[C@@H](C2)N(CC2CC2)CC[C@]314)C[C@@]1(O)[C@H]2Cc3ccc(OCC(=C)C(=O)OC)c4c3[C@@]1(CCN2CC1CC1)[C@H]5O4)C(=O)OC` [listing 1 of 2 here], the half-maximal inhibitory concentration (IC50) in assay [2] stood at 22 nM. In other words, the double-digit nanomolar range.
Same read-out and setting: the value for `C=C(COc1ccc2c3c1O[C@H]1c4[nH]c5ccccc5c4C[C@@]4(O)[C@@H](C2)N(CC2CC2)CC[C@]314)C(=O)OC` [listing 1 of 2 here] was 80 nM.
For `C=C(COc1ccc2c3c1O[C@H]1C(=O)CC[C@@]4(O)[C@@H](C2)N(CC2CC2)CC[C@]314)C(=O)OC`, the IC50 at Mu-type opioid receptor stood at 1.5 nM; in assay [1], 19 nM; in assay [2], 10.3 nM.
On to `C=C(COc1ccc2c3c1O[C@H]1[C@H](O)CC[C@@]4(O)[C@@H](C2)N(CC2CC2)CC[C@]314)C(=O)OC`, for which the figures for the IC50 (at Mu-type opioid receptor; in assay [1]; in assay [2]) were 2.8 nM, 47 nM and 27 nM, respectively.
`COC(=O)C(C)COc1ccc2c3c1O[C@H]1C(=O)CC[C@@]4(O)[C@@H](C2)N(CC2CC2)CC[C@]314` (stereo partly drawn) [listing 1 of 2 here]: the IC50 is 840 nM on Mu-type opioid receptor and > 3000 nM in assay [1].
`C=C(COc1ccc2c3c1O[C@H]1c4[nH]c5ccccc5c4C[C@@]4(O)[C@@H](C2)N(CC2CC2)CC[C@]314)C(=O)OC` [listing 2 of 2 here]: the results for the IC50 (on Mu-type opioid receptor; in assay [1]) were 96 nM and 175 nM, respectively.
On to `C=C(COc1ccc2c3c1O[C@H]1c4[nH]c5c(c4C[C@@]4(O)[C@@H](C2)N(CC2CC2)CC[C@]314)C[C@@]1(O)[C@H]2Cc3ccc(OCC(=C)C(=O)OC)c4c3[C@@]1(CCN2CC1CC1)[C@H]5O4)C(=O)OC` [listing 2 of 2 here], for which the results for the IC50 (on Mu-type opioid receptor; in assay [1]) were 47 nM and 8.3 nM, respectively.
For `CO[C@]12CC[C@@]3(C[C@@H]1C(C)(C)O)[C@H]1Cc4ccc(O)c5c4[C@@]3(CCN1CC1CC1)[C@H]2O5` the same measures were 0.71 nM and 1.8 nM.
Take `COC(=O)C(C)COc1ccc2c3c1O[C@H]1C(=O)CC[C@@]4(O)[C@@H](C2)N(CC2CC2)CC[C@]314` (stereo partly drawn) [listing 2 of 2 here]: the 50% inhibitory concentration (IC50) in assay [2] is > 3000 nM.
`C=C(COc1ccc2c3c1O[C@H]1[C@H](OCC(=C)C(=O)OC)CC[C@@]4(O)[C@@H](C2)N(CC2CC2)CC[C@]314)C(=O)OC`: the 50% inhibitory concentration (IC50) came to 2.8 nM on Mu-type opioid receptor, 42 nM in assay [1] and 14 nM in assay [2].

The values are drawn from ChEMBL document CHEMBL1126106, “O3-(2-carbomethoxyallyl) ethers of opioid ligands derived from oxymorphone, naltrexone, etorphine, diprenorphine, norbinaltorphimine, and naltrindole. Unexpected O3-dealkylation in the opioid radioligand displacement assay” (1992).
